The target of data set [1] is T1, Fibronectin receptor (Fn-R) (Homo sapiens, UniProt P05556+P08648).
T1 construct: Fibronectin receptor (Fn-R) was similarly purified from (100 mM) octyl glucoside-extracted human placenta; from tissue; host or cells: human placenta
The settings on record: read-out: FnR Binding.

The chains behind the UniProt entries cited, without tags or fusion partners. Residues count along the entry.
UniProt P08648, 895-1049 partner limits assumed: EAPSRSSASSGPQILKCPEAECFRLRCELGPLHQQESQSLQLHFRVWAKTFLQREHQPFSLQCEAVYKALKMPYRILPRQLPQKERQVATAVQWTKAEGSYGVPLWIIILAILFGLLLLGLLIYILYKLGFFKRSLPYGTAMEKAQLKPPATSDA
UniProt P08648, 42-894 limits assumed: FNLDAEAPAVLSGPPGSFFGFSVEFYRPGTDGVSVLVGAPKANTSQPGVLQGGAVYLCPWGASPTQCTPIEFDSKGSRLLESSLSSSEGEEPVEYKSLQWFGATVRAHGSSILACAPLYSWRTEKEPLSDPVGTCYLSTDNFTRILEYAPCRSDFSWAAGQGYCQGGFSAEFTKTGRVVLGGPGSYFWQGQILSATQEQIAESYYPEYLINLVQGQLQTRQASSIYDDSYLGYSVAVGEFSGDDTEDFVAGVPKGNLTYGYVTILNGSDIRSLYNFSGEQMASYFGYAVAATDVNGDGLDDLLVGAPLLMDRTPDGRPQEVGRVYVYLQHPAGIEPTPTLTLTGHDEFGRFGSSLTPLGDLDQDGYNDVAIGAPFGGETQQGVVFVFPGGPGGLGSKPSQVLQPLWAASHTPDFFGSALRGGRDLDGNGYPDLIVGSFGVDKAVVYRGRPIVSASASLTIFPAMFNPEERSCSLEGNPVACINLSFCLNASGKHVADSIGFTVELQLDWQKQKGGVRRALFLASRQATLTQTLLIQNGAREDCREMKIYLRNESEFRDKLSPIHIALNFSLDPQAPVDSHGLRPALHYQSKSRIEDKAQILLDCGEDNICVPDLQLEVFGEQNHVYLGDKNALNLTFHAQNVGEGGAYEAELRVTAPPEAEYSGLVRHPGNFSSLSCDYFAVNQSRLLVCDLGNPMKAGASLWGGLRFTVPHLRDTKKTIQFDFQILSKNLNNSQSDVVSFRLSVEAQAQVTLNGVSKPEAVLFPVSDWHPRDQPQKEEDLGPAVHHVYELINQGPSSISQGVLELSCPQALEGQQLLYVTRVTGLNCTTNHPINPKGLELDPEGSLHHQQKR
UniProt P05106, 27-788: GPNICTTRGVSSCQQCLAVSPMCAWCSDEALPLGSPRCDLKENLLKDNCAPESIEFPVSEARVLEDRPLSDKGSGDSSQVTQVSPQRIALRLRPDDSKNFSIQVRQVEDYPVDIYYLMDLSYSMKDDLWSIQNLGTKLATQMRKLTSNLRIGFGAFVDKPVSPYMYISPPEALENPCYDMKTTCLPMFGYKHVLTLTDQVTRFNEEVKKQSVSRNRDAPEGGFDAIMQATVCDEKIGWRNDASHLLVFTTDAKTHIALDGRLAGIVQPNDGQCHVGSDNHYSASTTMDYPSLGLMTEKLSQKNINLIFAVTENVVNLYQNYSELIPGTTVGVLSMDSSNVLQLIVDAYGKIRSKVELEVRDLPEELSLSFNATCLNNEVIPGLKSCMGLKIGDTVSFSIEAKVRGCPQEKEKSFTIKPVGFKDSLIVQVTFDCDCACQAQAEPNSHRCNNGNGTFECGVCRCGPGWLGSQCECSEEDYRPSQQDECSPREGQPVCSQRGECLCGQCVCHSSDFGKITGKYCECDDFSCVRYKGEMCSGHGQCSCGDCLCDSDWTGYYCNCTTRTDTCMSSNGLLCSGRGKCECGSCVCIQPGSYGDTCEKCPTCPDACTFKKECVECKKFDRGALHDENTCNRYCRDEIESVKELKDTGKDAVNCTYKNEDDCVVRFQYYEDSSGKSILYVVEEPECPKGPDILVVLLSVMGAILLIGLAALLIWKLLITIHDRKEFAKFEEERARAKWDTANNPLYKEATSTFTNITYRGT
UniProt P06756, 891-1048 partner limits assumed: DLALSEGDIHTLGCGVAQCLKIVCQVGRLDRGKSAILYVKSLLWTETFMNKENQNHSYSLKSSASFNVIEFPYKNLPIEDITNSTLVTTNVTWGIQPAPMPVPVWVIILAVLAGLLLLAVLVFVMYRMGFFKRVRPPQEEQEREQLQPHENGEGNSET
UniProt P06756, 31-889 limits assumed: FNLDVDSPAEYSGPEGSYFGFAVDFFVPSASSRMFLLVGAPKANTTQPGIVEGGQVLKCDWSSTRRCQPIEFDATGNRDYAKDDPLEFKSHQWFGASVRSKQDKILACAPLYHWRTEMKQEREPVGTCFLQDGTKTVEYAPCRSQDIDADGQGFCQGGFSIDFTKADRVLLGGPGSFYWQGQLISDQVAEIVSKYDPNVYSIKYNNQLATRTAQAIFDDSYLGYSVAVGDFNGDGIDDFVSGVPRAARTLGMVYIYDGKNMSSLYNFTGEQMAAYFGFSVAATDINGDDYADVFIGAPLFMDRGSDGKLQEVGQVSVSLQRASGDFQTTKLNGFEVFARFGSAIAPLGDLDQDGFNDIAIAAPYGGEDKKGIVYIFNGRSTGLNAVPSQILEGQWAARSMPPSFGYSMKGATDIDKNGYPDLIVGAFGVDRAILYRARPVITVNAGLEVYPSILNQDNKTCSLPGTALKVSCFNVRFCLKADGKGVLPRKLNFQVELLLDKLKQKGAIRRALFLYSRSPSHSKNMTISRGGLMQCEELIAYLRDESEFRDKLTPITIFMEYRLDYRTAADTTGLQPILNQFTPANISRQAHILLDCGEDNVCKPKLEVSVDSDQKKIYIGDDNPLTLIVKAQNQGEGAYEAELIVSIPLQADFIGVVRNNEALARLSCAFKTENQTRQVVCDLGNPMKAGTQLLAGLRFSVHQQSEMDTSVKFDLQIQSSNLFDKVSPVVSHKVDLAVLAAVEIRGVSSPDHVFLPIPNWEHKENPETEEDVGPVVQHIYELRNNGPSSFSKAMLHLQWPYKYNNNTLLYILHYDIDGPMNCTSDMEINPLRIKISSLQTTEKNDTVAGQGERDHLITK
UniProt P08514, 32-887 limits assumed: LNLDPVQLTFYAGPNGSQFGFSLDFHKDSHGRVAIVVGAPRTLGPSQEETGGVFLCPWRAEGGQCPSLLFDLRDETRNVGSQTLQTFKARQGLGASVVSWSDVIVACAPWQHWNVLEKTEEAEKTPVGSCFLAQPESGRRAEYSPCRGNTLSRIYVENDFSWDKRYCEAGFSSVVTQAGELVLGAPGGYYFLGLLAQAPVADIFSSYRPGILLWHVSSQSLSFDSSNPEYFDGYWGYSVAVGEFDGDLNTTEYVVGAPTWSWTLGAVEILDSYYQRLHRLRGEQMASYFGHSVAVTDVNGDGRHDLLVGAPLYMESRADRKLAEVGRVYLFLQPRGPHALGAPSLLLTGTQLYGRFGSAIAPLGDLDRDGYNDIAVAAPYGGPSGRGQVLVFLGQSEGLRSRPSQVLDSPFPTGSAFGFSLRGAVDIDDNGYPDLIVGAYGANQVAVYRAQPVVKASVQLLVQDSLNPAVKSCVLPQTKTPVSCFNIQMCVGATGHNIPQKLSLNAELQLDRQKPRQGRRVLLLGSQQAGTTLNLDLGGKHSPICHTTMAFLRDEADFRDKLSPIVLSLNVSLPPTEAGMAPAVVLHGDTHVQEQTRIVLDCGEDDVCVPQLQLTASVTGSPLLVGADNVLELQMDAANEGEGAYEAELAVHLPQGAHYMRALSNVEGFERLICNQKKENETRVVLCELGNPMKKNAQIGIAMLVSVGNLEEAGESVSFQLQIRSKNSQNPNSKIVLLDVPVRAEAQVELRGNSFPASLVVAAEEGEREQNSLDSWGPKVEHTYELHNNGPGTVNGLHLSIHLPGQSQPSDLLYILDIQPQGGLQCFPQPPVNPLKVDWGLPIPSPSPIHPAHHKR
UniProt P08514, 891-1039 partner limits assumed: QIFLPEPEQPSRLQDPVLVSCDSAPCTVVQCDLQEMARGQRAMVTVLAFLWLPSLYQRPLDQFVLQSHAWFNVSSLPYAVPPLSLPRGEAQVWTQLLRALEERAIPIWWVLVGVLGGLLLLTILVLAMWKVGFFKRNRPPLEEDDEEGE

Data set [2] is described as follows: Bleeding time before and after dose (Table IV). The settings on record: dose per code. The format is in vivo. How it is done: Bleeding time was quantified at 1 hour before and one, three, and five hours after administration of the peptide. This was done by making a small (5 mm long and 1.5 mm deep) incision in the tongue and subsequently absorbing the exuded blood at this site every 15 seconds with a piece of Whatman filter paper until bleeding stopped. Platelet counts were determined with a Haema Count MK-4/HC platelet counting system.
Using the method described in Example V to measure ex vivo inhibition of platelet aggregation and the method described in Example VII to measure bleeding, four additional peptides were tested. These peptides included 11J, 11Q, 11K and 11V.

Data set [3] is described as follows: Peripheral blood flow (PBF) by laser doppler probe, rabbit ear. The settings on record: bolus dose as printed per drug. The format is in vivo. As for the experimental part: (§1) In an alternative series of experiments, (Table 2) PBF was measured quantitatively with a laser dopler flow probe (Perimed). The probe was positioned securely over the vascular bed of one ear and flow monitored continuously. Each inhibitor was infused and CBT measured in the opposing ear. No arterial catheter was placed for blood sampling, consequently XPA […] in these animals.
As positive control, epinephrine was infused intravenously (1 mg over 2 minutes) at 60 minutes. The resulting vasoconstriction reduced flow to near 0 flow units within 5 minutes.

In data set [4] the target is T2, vitronectin receptor (Vn-R) (Homo sapiens, UniProt P05106+P06756).
T2 construct: from tissue; host or cells: human placenta
Description: VnR binding, ELISA or liposome attachment assay (Table I). How it is done: Receptor and ligand purifications were performed according to the methods in this Example or those in Example XI.C. Receptors were purified according to the procedures of Pytela et al. (Methods Enzymol. 144:475 (1987)), incorporated herein by reference. […] After extraction, the suspension was filtered over a Sepharose 6B column and then applied to a GRGDSPK column. Except where stated, all procedures were carried out at 4° C. The peptide column was washed with three volumes of Tris-buffered saline (TBS) containing 1 mm Ca^2+l and 25 mM CG and then with TBS containing 1 mM Ca^2+ and 25 mM octyl thioglucoside (OTG) at room temperature. […] Finally, Ca^2+ and Mg^2+ were added to eluted fractions to achieve final concentrations of 1 mM for both ions.
Maxisorp microtiter plates were coated with 2 μg/ml human vitronectin dissolved in PBS ([…]) and stored overnight at 4° C. The plates were washed two times with PBS-0.05% Tween-20 (wash buffer) and blocked by incubating with about 150 μl/well of assay buffer (1%, BSA (RIA grade or better) in 50 mM Tris-HCl, 100 mM NaCl, 1 mM MgCl2, CaCl2, MnCl2 pH 7.4) for 60 minutes. Dilutions of standards were prepared and putative inhibitors (Table 2) were dissolved in assay buffer. The blocked plates were emptied and 20 μl/well of inhibitor or standard solution was added to each well. Twenty-five μl of a 30 μg/ml solution of purified αv β3 in assay buffer was pipetted into the coated plate. The final concentration of receptor in the assay well was about 15 μg/ml. The plate was incubated on a shaker for 60 minutes. Meanwhile, for each microtite plate, 6 ml buffer solution containing 1.5 g/ml of mouse monoclonal antibody specific for β3is prepared. To this solution was added the secondary antibody, which is anti-mouse-Fc-HRP antibody conjugate. For example, for one plate, 6 ml of a 1.5 μg/ml mouse Mab solution was prepared to which was added 1 μl of anti-mouse-Fc-HRP antibody stock, (this represents a 1:6000 dilution of the antibody--HRP conjugate). This mixture was allowed to incubate during the receptor-inhibitor incubation. The assay plates were washed 4 times with PBS-Tween and 50 μl/well of the antibody mixture was then pipetted into the plate for a 60 minute incubation. The plate was washed 4 times and the color reaction was developed with 50 μl/well of 0.67 mg/ml o-phenyldiamine in PBS containing 0.012% H2 O2. […] The plates were read at 492-405 nm and the data analyzed by four-parameters fit.
This assay was performed with minor modifications, according to the method of Pytela et al., Methods Enzymol. […] An aliquot of the dialyzed sample was counted to assess radioactive content; the receptor-liposome mixture was then diluted to obtain a set radioactivity per unit volume. […]
In general terms: An ELISA detects its analyte on a solid surface through an enzyme-linked reagent.

Another data set deals with platelets. In words: Ex vivo platelet aggregation in canine coronary thrombosis model. More on the design: species or system dog. The settings on record: 10 mg/kg; all three time points. How it is done:
For all ex vivo studies (see FIG. 3), control aggregation values were standardized to the percentages of light transmission observed in PRP and PPP samples (0% and 100%, respectively).
Animals were randomly assigned to two treatment groups: vehicle control (i.e., normal saline) or RGD peptides at various concentrations. Peptides were administered intra-atrially in both bolus and continuous injections. Each bolus injection consisted of 0.5 to 10 mg/kg and was administered 15 minutes before application of the current. A continuous infusion of the same peptide was then started immediately after completion of this initial injection. Animals received a 25 μg/kg/min to 200 μg/kg/min infusion. The anti-thrombotic effects of the peptides were monitored until 30 minutes after the occurrence of a persistent, occlusive thrombus or five hours after the initiation of electrical stimulation (whichever resulted first). […]
Platelet counts and ex vivo aggregation studies were performed one hour before and 1, 3, and 5 hours after application of anodal direct current. Samples of arterial blood were drawn into plastic syringes containing 3.8% trisodium citrate (giving a 1:10 final dilution) and platelet aggregation determined as described in Example V.
Platelet aggregation was also determined ex vivo at one, three, and five hours after current application. […]

Data set [5] in a line: Bleeding time, clotting time and hematology in baboons. The class given is in vivo, baboon. As for the experimental part: Twenty-four hours before the ex vivo shunt was established, platelets were isolated from 500 ml of blood from the test animal and labelled with ca. of 500 microcuries of indium-111 oxine (Medi+Physics, Emeryville, Calif.), which irreversibly and specifically binds to platelets with an efficiency of 50%. Immediately after labelling, these platelets were then injected back into the animal and allowed to circulate for 24 hours. Immediately before the start of the study, fibrinogen that had been isolated from the animal and labelled with iodine-131 (DuPont Nuclear, Boston, Mass.) was also injected back into the animal. Also at this time, baseline determinations of the clotting and template bleeding times were made, and blood samples were drawn for hematology studies.
At one- and two-hour time points, template bleeding times were measured, and blood samples were drawn to assess the hematology aggregation studies. Platelet aggregation studies were performed as described in Example V using ADP as the stimulus.
Upon the completion of each study, each shunt was flushed with lactated Ringer's solution, and each graft was then removed. Sections of these grafts were subjected to liquid scintillation counting to determine their content of residual ^131 iodine-fibrinogen and ^111 indium-platelets. The catheters in the femoral artery and vein were then removed, and hemostasis was achieved by compression. Finally, post-procedural blood samples were drawn, and determinations of template bleeding and clotting times were also made.

A further data set has as its target GP IIb/IIIa (Homo sapiens, UniProt P05106+P08514). Description: IIb/IIIa binding, ELISA or liposome attachment assay (Table I). More on the design: Platelet glycoprotein Ilb/IIIa was purified from outdated human platelets; from tissue; host or cells: outdated human platelets. The settings on record: no unit printed in Table I.
A short description of data set [6]: Cutaneous bleeding time (CBT), rabbit. The settings on record: bolus dose as printed per drug. The class given is in vivo. As for the experimental part:
Unanesthetized male New Zealand White rabbits (2.5-3.5 kg) were placed in a standard rabbit restrainer. Ears were shaved and a 20G teflon catheter with flowswitch (Viggo) was placed in the medial artery, flushed with saline and locked with 1 ml of heparinized saline (10 m/ml). A 22G catheter (Abbott) fitted with an injection cap (Medex) was placed in the marginal vein of the same ear. Saline or a GP IIb III3 receptor antagonist, at a concentration of 1 to 3 mg/ml, was infused via the venous catheter. At time 0, 41% of the dose was given as a bolus over 2 minutes. The remainder was continuously infused over the following 60 minutes. Blood samples (3.2 ml) were collected into syringes without needles via the arterial catheter at -10, -5, 10, 45 and 60 minutes. The first 0.5 ml was discarded and the following 2.7 ml was collected directly into a syringe containing 0.3 ml of 3.8% sodium citrate. The sample was divided into 1.5 ml aliquots and centrifuged at room temperature for 5 seconds at 12,000 G. The resulting platelet rich plasma (PRP) is used to measure ex-vivo platelet aggregation (XPA). At -10 and 60 minutes an additional 1.5 ml sample is drawn for an automated blood count (Baker Instruments). Catheters are flushed and locked after every sample.
CBT Was measured at -10, -5, 10, and 45 minutes on the opposite ear, using an automated incision-making instrument Surgicutt^R, ITD). An incision (5 mm×1 mm deep) was made on the dorsal surface of the ear at sites not supplied by major blood vessels. Blood was blotted away with absorbent paper placed near the incision site, every 2 to 15 seconds, to a maximum of 15 minutes. Cessation of bleeding was defined as no blood forming at the incision site for 15 seconds. The range of duplicate CBT in 40 normal rabbits was 0.88 to 3.38 minutes.
as §1

The mark [7] stands for this setting: animal 1, immediately after completion of second shunt.
The mark [8] stands for this setting: time 10 min, listed as R(PmC)GHRGD(Y-OMe)RCR.
[9] abbreviates: time 45 min, listed as R(PmC)GHRGD(Y-OMe)RCR.

Several values for one entry are separate records, joined by “and”; a condition that tells them apart may be missing. Equal entries are not always repeated.

In the case of Ac(dPen)IPRGD(O-Me-Tyr)RC-NH2, the IC50 in data set [1] worked out at 6.75 µM.
Ac-CNPKGD(Y-OMe)RC-NH2 [11Q]: in data set [2], the “Post dose bleeding time” value turned out to be 3.5 min.
As to Ac-CNPRGD(Y-OMe)(Nle)C-NH2 [11V], the “Post dose bleeding time” value in data set [2] was determined as 21 min.
For the substance Ac-CNPRGD(Y-OMe)AC-NH2 [11K], in data set [2], the “Post dose bleeding time” value was above 30 min.
On the same count and under the same terms, the result for Ac-CNPRGD(Y-OMe)EC-NH2 [11J] reads above 30 min.
Turning to Ac-CNPRGD(Y-OMe)RCNH2 [8x], the results for the “PBF (units)” value in data set [3] (time 0 min (pre-infusion)), in data set [3] (time 10 min) and in data set [3] (time 45 min) were 263 units, 317 units and 293 units, respectively.
In turn, D(Pmc)GHRGD(O-Me-Tyr)RCR returned an IC50 in data set [4] of 0.85 µM.
As for G(Pen)GHRGDLRCA [2G], in the data set with platelets, the “ex vivo inhibition of AA-stimulated response relative to control” value is 43-70% and the “ex vivo inhibition of collagen-stimulated response relative to control” value is given as 12-50%. The “template bleeding and clotting times” value in data set [5] (animal 1) is “did not lower”. For the same substance, in data set [5] (setting [7]), the platelet count reduced was found to be 14% and the “white blood cell count reduced” value was 37%. Moreover, the “template bleeding time, clotting time, all blood cell counts” value in data set [5] (animal 2) was “no effect”.
For the substance G(Pen)GRGDLPCA, the IC50 in data set [4] worked out at 0.013 µM.
In the case of R(Pmc)GHRGD(O-Me-Tyr)RCR, the IC50 was 6.4 µM and 8.7 µM in data set [1]; 9.9 µM and 6.04 µM in data set [4]; 0.06 µM and 0.07 µM on GP IIb/IIIa.
As for R(Pmc)GHRGD(Y-OMe)RCR, the “PBF (units)” value came to 5 units in data set [3] (time 10 min), 0 units in data set [3] (setting [8]), 360 units in data set [3] (time 45 min) and 263 units in data set [3] (setting [9]). For the same substance, the “CBT” value is 2.9 min in data set [6] (time 0 min (pre-infusion)); 2.1 min in data set [6] (time 0 min (pre-infusion), listed as R(PmC)GHRGD(Y-OMe)RCR); 0.8 min in data set [6] (time 10 min); 3.8 min in data set [6] (setting [8]); 1.5 min in data set [6] (time 45 min); 1.2 min in data set [6] (setting [9]).
On to “R(am-Pmp)GHRGDLRCR [R(am-Pmp)GHRGDLRCR-1]”, for which the results for the IC50 (in data set [1]; on GP IIb/IIIa) were 1.1 µM and 0.4 µM, respectively.
With T(Pmc)GRRGD(O-Me-Tyr)RCR, the figures for the IC50 (in data set [1]; in data set [4]; at GP IIb/IIIa) were 10 µM, 10 µM and 0.052 µM, respectively.
